The test addresses T1, Core-binding factor subunit beta (Homo sapiens, UniProt Q13951).
T1 sequence (Q13951 whole entry): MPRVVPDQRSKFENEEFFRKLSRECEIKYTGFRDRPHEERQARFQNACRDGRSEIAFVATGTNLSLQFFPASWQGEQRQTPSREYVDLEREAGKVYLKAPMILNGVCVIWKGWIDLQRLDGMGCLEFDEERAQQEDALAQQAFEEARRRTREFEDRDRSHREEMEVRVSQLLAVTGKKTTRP
In words: FRET Assay. An excerpt:
We have developed effective assays to monitor the inhibition of CBFβ-SMMHC binding to the Runt domain (as well as for CBFβ binding to the Runt domain). We fused the green fluorescent protein derivative Cerulean to the N-terminus of the Runt domain and the green fluorescent protein derivative Venus to the N-terminus of CBFβ-SMMHC (as well as to CBFβ (Gorczynski, Grembecka et al. 2007)). The ratio of the emission intensities at 525 nm and 474 nm, measured after excitation at 433 nm, was used as the readout in this assay. The dynamic range for the FRET assay was determined by adding a 30-fold excess of untagged CBFβ-SMMHC (or CBFβ in the case of CBFβ Runt domain binding) to the assay and the associated change in the FRET ratio was defined as 100% inhibition.

pIC50: −log10 of the molar value.

`FC(F)(F)Oc1cc(-c2cccnc2)c2nc(-c3ccccn3)[nH]c2c1` [US8748618, AI-10-96]: the negative logarithm of the IC50 (pIC50) – broadly, the negative decadic logarithm of the IC50, by convention in mol/L – is 5.70.
